Data reported in ChEMBL document CHEMBL4382201 (J Med Chem, 2018).

Test system: DNA
Assay: Induction of DNA cross-linking activity in human CLL-derived lymphocytes assessed as increase in gammaH2AX formation at 5 to 20 uM after 24 hrs by flow cytometry
Type: functional, cell-based

For Oc1ccc(N(CCCl)CCCl)cc1, which Activity is on record?
The Activity was “Active”.

The source made the active and inactive calls. No cut-off for these calls is given here.
